Among the data in PubChem BioAssay (Tox21) are Potency values, retold here.

SMILES strings stand for the structures. The list shows a part of the results, in another mix than the full data. A structure can be active in one record and inactive in another. Where a call stands in place of a potency, no number is given. Active and inactive are the calls of the source. Calls follow the shape of the dose curve; as a rule, active = well fitted activation curve with a large enough effect in the repeat runs; inconclusive = weak or mixed curves; inactive = flat fitted curve, though single readings scatter.
Potency is read from the fitted curve at half-maximal effect.

The assay is described as follows: Caspase-3/7 induction in CHO-K1 cells by small molecules, qHTS assay (AID 1346980). Also: nearly all actives have a fitted effect of over 15% in size. As to conditions: CHO-K1 caspase-3/7 induction, Caspase-Glo luminescence, 17 h; series mostly up to 92.4 µM. The text has this:
National Center for Advancing Translational Sciences [NCATS]
NIH Chemical Genomics Center [NCGC]
U.S. Environmental Protection Agency [EPA]
National Institutes of Environmental Health Sciences [NIEHS]
National Toxicology Program [NTP]
Apoptosis is a process of programmed cell death and plays a central role in the development of multicellular organisms. It is a highly regulated process and induces cell death by activating caspases, which are the members of cysteine aspartic acid-specific protease (caspase) family. Caspases involved in apoptosis are classified by their mechanism of action as initiator caspases (caspase-2, -8, -9 and -10) and executioner caspases (caspase-3, -6, and -7). Inhibition of apoptosis results in number of cancers, autoimmune diseases, inflammatory diseases and viral infection. To identify small molecule compounds that induce apoptosis, a homogeneous, luminescent Caspase-Glo 3/7 assay was used. Wild type CHO-K1 cells were used to screen Tox21 libraries for identifying caspase-3/7 activity inducers.
CHO-K1 cells were dispensed at 1,500 per well in 5uL of culture medium into white solid bottom 1536-well plates (Corning Life Sciences, Corning, NY) using a Multidrop Combi (Thermo Scientific, Waltham, MA) dispenser. The assay plates were incubated at 37 C and 5% CO2 for 5hr, and then 23nL of compounds dissolved in DMSO and positive control were transferred using a Pintool station (Wako, San Diego, CA). The assay plates were incubated at 37C and 5% CO2 for 17hr. For caspase-3/7 activity read, 4uL of Caspase-Glo 3/7 reagent (Promega Corporation, Madison, WI) was added to each well of the assay plates using Flying Reagent Dispenser (FRD, Aurora Discovery, San Diego, CA) and incubated the assay plates at room temperature for 30min. The luminescence signal was quantified using a ViewLux plate reader (Perkin Elmer, Shelton, CT).
Take `N#CBr`: the Potency result is “inactive”.

As for `COc1ccc([N+](=O)[O-])cc1[N+](=O)[O-]`, the Potency result is “inactive”.

With `COP(C)(=O)OC`, the Potency entry is “inactive”.

`N=C(N)N[N+](=O)[O-]`: the Potency entry was “inactive”.

Take `Nc1cc([N+](=O)[O-])cc([N+](=O)[O-])c1O`: the Potency entry is “inactive”.

Regarding `CCN(CC)CCCl`, the Potency result is “inactive”.

In the case of `O=[N+]([O-])OCC(CO[N+](=O)[O-])(CO[N+](=O)[O-])CO[N+](=O)[O-]`, the Potency entry is “inactive”.

On to `C/C1=C2N=C(/C=C3N=C(/C(C)=C4\[N-][C@@](C)([C@@H]5N=C1[C@](C)(CCC(=O)NC[C@@H](C)OP(=O)([O-])O[C@H]1[C@@H](O)[C@@H](n6cnc7cc(C)c(C)cc76)O[C@@H]1CO)[C@H]5CC(N)=O)[C@@](C)(CC(N)=O)[C@@H]4CCC(N)=O)[C@@](C)(CC(N)=O)[C@@H]\3CCC(N)=O)C(C)(C)[C@@H]/2CCC(N)=O.[C-]#N.[Co+3]`, for which the Potency entry was “inactive”.

Take `OCCSCCO`: the Potency entry was “inactive”.

Take `Cc1c([N+](=O)[O-])cccc1[N+](=O)[O-]`: the Potency entry was “inactive”.

Turning to `CC(C)OP(C)(=O)OC(C)C`, the Potency result is “inactive”.

For the compound `CC(C)N(CCO)C(C)C`, the Potency entry was “inactive”.

As for `Cc1ccc([N+](=O)[O-])cc1[N+](=O)[O-]`, the Potency is active: 53.7 µM and inactive.

Take `CN(C)CCCl`: the Potency result was “inactive”.

With `CCOP(=O)(CC)Oc1ccc([N+](=O)[O-])cc1` (configuration not stated), the Potency entry is “inactive”.

Consider `CCOP(=O)(CC)OCC`, for which the Potency entry is “inactive”.

As to `[NH4+].[O-][Cl+3]([O-])([O-])[O-]`, the Potency entry is “inactive”.

For `Cc1cccc([N+](=O)[O-])c1[N+](=O)[O-]`, the Potency result was “inactive”.

For the compound `Cc1ccc([N+](=O)[O-])c([N+](=O)[O-])c1`, the Potency entry is “inactive”.

For the compound `CP(=O)(O)OCCC[Si](O)(O)O`, the Potency entry is “inactive”.

Take `O=[N+]([O-])c1cccc([N+](=O)[O-])c1`: the Potency entry is “inactive”.

Take `O=[N+]([O-])[O-].[NH4+]`: the Potency result is “inactive”.
